Results: PubChem BioAssay (NCI)
The entries are a selection whose mix differs from that of the whole data set.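 Percent growth is the endpoint: 0 to 100 indicates growth inhibition (40 means 60% inhibition), 0 means no net growth, and negative values indicate cell death.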 Calls of active or inactive are those of the source. How the source made its calls: active means growth percent below 10; inactive means the rest.

What was measured:
Experiment in all cases: NCI-60 one-dose screen, 48 h (100 = growth as untreated, 0 = no growth, -100 = all killed)
Details in all cases: 10 µM unless noted
[1] = test system: NCI-H23 lung
[2] = test system: NCI-H226 lung
[3] = test system: NCI-H322M lung
[4] = test system: HOP-62 NSCLC
[5] = test system: NCI-H460 lung
[6] = test system: HOP-92 NSCLC
[7] = test system: NCI-H522 lung
[8] = test system: A549/ATCC NSCLC
[9] = test system: 786-0 renal
[10] = test system: COLO 205 colon

Measured: growth

NCCNCCCl
inactive: [1] 107% | [2] 99.2% | [3] 114% | [4] 105% | [5] 111% | [6] 90.2% | [7] 103% | [8] 96.2% | [9] 105% | [10] 115%

O=S1(=O)CC(Sc2ccccc2)[C@@H](Cl)C1 (stereo partly drawn)
inactive: [1] 109% | [2] 96.8% | [3] 112% | [4] 95.3% | [5] 104% | [6] 91.1% | [7] 87% | [8] 92.4% | [9] 105% | [10] 112%

CCN(CCCl)CC1COc2ccccc2O1 (stereo not drawn)
inactive: [1] 98.2% | [2] 107% | [3] 103% | [4] 91.6% | [5] 108% | [6] 109% | [7] 90.7% | [8] 93.2% | [9] 106% | [10] 108%

CCOP(=O)(NC1CCCCC1)OCC
inactive: [1] 111% | [2] 102% | [3] 95% | [4] 104% | [5] 108% | [6] 92.6% | [7] 93.1% | [8] 100% | [9] 103% | [10] 111%

ClCCN1CCc2ccccc2C1
inactive: [1] 97.4% | [2] 96.9% | [3] 97.4% | [4] 107% | [5] 97.5% | [6] 79.5% | [8] 93.1% | [9] 97.1% | [10] 124%

CC(C)(NCCCl)C(O)c1ccccc1 (stereo not drawn)
inactive: [1] 82.1% | [2] 88.2% | [3] 98.4% | [4] 105% | [5] 87.9% | [6] 69.5% | [7] 58.1% | [8] 71.3% | [9] 102% | [10] 84.9%

O=C(N(CCCl)CCCl)C(Cl)(Cl)Cl
inactive: [1] 113% | [2] 91.8% | [3] 126% | [4] 113% | [5] 107% | [6] 122% | [7] 85.9% | [8] 98.3% | [9] 105% | [10] 113%

N#CC(C#N)=C(C#N)N(CCCl)CCCl
inactive: [1] 86.2% | [2] 97.2% | [3] 108% | [4] 106% | [5] 45.1% | [6] 98.3% | [7] 94.4% | [8] 93.5% | [9] 110% | [10] 116%

OP1OCCO1
inactive: [1] 111% | [2] 92.4% | [3] 103% | [4] 98.5% | [5] 110% | [6] 68.5% | [8] 104% | [9] 103% | [10] 107%
